From ChEMBL document CHEMBL1135804, “Beta-strand mimicking macrocyclic amino acids: templates for protease inhibitors with antiviral activity” (J Med Chem, 2002)

Assay: IC90 of viability of cells in the absence of infecting HIV-1 / IC50 of virion associated RT activity in HIV-1 infected MT2
Type: functional

`CC(C)CN(C[C@@H](O)[C@H](Cc1ccccc1)NC(=O)O[C@H]1CCOC1)S(=O)(=O)c1ccc(N)cc1` [AMPRENAVIR] showed an SI of 125.
